Assay outcomes as filed in PubChem.
Shown are actives, neighbours in structure and some others; about 0.42% of the full set was active somewhere.
Rango release inh: qHTS Assay for Inhibitors of RanGTP induced Rango (Ran-regulated importin-beta cargo) - Importin beta complex dissociation. Snurportin-1 (Homo sapiens) + GTP-binding nuclear protein Ran (Homo sapiens) + Importin …. Biochemical FRET Rango-importin beta, RanGTP-induced dissociation. Potency, µM (highest dose often 46.1 µM), for inactives: at the highest dose activity change, negative = inhibition. 340,000 compounds, 0.071% hits; calls by dose curve; also: % of control where 0% means no effect; nearly all actives have a fitted effect of over 45% in size
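Compounds sat 5 min at room temperature with 0.1 uM Rango biosensor plus 0.25 uM importin beta, then FRET pre-read. RanGTP-RCC1 (0.6 uM Ran, 2mM GTP, 0.2 uM RCC1) added for 45 min, and the CFP/YFP post-read measured blocked complex dissociation.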
Epigenetic reg: Quantitative High-Throughput Screen for Regulators of Epigenetic Control; Potency, µM (series often up to 53.9 µM), for the others: at the top dose GFP activation, hits mostly activators; 280,000 compounds, 0.2% hits; murine LDR cells, GFP reporter derepression, 30 h; also: % of control where 0% means no effect; nearly all actives have a fitted effect of over 60% in size
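Murine LDR cells carrying a silenced, genomically integrated CMV-driven GFP reporter were exposed to compound for 30 hours at 37 C. After PBS washes, GFP-positive cells (20–120 um objects) were counted by laser-scanning microplate cytometry.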
Vif-A3F inh: qHTS for Inhibitors of Vif-A3F Interactions: qHTS; HeLa A3F-eYFP + Vif (tagged APOBEC3F with the HIV-1 protein that degrades it), YFP fluorescence increase; Potency, µM (top dose mostly 46.1 µM), for inactives: at the highest dose activity, negative = active; 390,000 compounds, 0.2% hits; AID 602313, 2012; also: % of control where 0% means no effect; nearly all actives have a fitted effect of over 65% in size
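Fluorescence increase (Ex 488/Em 500-530) after overnight compound treatment at 37 deg C flags inhibition of Vif-driven A3F-eYFP loss in stable HeLa A3F-eYFP/Vif cells seeded overnight beforehand.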
Rango complex inh: qHTS Assay for Inhibitors of Rango (Ran-regulated importin-beta cargo) - Importin beta complex formation; Rango CFP/YFP FRET sensor + importin beta, 45 min; Potency, µM (titrated, usually from 92.2 µM), inactives show at the top dose inhibition of complex formation; 340,000 compounds, 0.031% hits; AID 540263, 2011; calls by dose curve;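 also: 0% = DMSO wells and 100% = buffer wells lacking importin beta; nearly all actives have a fitted effect of over 15% in size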
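FRET biosensor Rango (snurportin 1 IBB between N-terminal EYFP and C-terminal Cerulean), 50 nM in PBS/1 mM DTT/0.02% Tween-20/0.1% BSA, preincubated 5 min RT with compound; 0.125 microM importin beta added, 45 min RT, CFP/YFP FRET ratio read.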
Vif-APOBEC3G blk: qHTS for Inhibitors of Vif-A3G Interactions: qHTS | HeLa A3G-eYFP + Vif (tagged APOBEC3G with the HIV-1 protein that degrades it), YFP fluorescence, overnight | 410,000 compounds, 0.076% hits | Potency, µM (series often up to 46.1 µM), for inactives: top-dose activity, negative = active, actives largely listed as inhibitors; also: % is scaled to controls: 0 for no effect and ±100 for the full control effect; nearly all actives have a fitted effect of over 60% in size
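Read-out is eYFP fluorescence (Ex 488/Em 500-530) from Vif-expressing HeLa A3G-eYFP cells; more signal means A3G escaped Vif-mediated degradation. Cells plated overnight, compound pinned in, incubated overnight at 37 deg C.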
* marks the source's active call; other numbers are inactive results; ? = inconclusive; / = not tested or not shown; [ ] = dose if it differs, or a comment. Unless noted, calls follow the shape of the dose curve; as a rule, active = well fitted curve in the direction sought with a large enough effect; inconclusive = small, poorly fitted or top-dose-only effect, or another doubt; inactive = no such curve, though single readings can be large; an effect the other way counts as inactive or inconclusive. Potency is read from the fitted curve at half-maximal effect.

Codes: A = Rango release inh; B = Epigenetic reg; C = Vif-A3F inh; D = Rango complex inh; E = Vif-APOBEC3G blk
SMILES: Cc1cc2nc(-c3ccc(SCC(=O)Nc4ccc(S(=O)(=O)N5CCCC5)cc4)nc3)[nH]c2cc1C
  A = -22%; B = 7%; C = 11µM*; D = ?; E = -7%

SMILES: Cc1ccc(N=C2NC(=O)/C(=C/c3cn(C)c4ccccc34)S2)cc1C
  A = ?; B = 8%; C = ?; D = ?; E = 8.9µM*

SMILES: Cn1cccc1/C=C1\SC(=Nc2ccccc2)NC1=O
  A = ?; B = 3%; C = -7%; D = ?; E = ?

SMILES: COC(=O)C1=COC(C)C2CN3CCc4c([nH]c5cc(OC)c(OC)cc45)C3CC12 (stereo not given)
  A = ?; B = 0%; C = 8.9µM*; D = ?; E = -12%

SMILES: COc1ccc2c3c([nH]c2c1)[C@@H]1C[C@@H]2[C@@H](C[C@H](O)[C@H](OC)[C@H]2C(=O)O)CN1CC3
  A = /; B = 0%[16.9 µM]; C = /; D = /; E = /

SMILES: COc1ccccc1N1N=C(c2ccc([N+](=O)[O-])cc2)CC1c1ccccc1 (stereo not given)
  A = 23%; B = /; C = -953%; D = 5%; E = 2.5µM*

SMILES: COCC(C)NCc1ccccc1C (stereo not given)
  A = 21%; B = 1%; C = 0%; D = 18µM*; E = -5%

SMILES: CC(C)(C)n1ncc2c(=O)n(Cc3cccc(C#N)c3)cnc21
  A = /; B = /; C = /; D = /; E = -2%

SMILES: CC(NC(=O)/C(C#N)=C/c1ccco1)c1ccccc1 (stereo not given)
  A = 2%; B = -1%; C = -6%; D = 1%; E = 0%

SMILES: CC(NC(=O)/C(C#N)=C/c1ccc([N+](=O)[O-])o1)c1ccccc1 (stereo not given)
  A = ?; B = /; C = 11µM*; D = ?; E = 22µM*

SMILES: CCOCCCNC(=O)/C(C#N)=C/c1ccc([N+](=O)[O-])o1
  A = -27%; B = 4µM*; C = 13µM*; D = ?; E = ?

SMILES: CCCCN(C)CC(O)Cn1cc(/C=C/C(=O)c2cccs2)c2ccccc21 (stereo not given)
  A = ?; B = 1%; C = 28µM*; D = ?; E = ?

SMILES: CCCCN(C)CC(O)Cn1cc(/C=C/C(=O)c2ccc(OCC)cc2)c2ccccc21 (stereo not given)
  A = /; B = 6%; C = 0%; D = /; E = -19%

SMILES: CN(C)c1ccc(CCC2C=Cc3ccccc32)cc1 (stereo not given)
  A = /; B = /; C = /; D = /; E = -4%

SMILES: Cc1ccnc(N2C(=O)c3cccc4c([N+](=O)[O-])ccc(c34)C2=O)c1
  A = ?; B = ?; C = ?; D = ?; E = 4%

SMILES: Cc1nnc(N2C(=O)c3cccc4c([N+](=O)[O-])ccc(c34)C2=O)s1
  A = ?; B = /; C = 28µM*; D = ?; E = ?

SMILES: CSc1cccc(NC(=O)C2CCN(S(=O)(=O)c3ccc4c(c3)CCCN4C(=O)C3CCC3)CC2)c1
  A = /; B = 0%; C = 3%; D = /; E = -1%

SMILES: CCOC(=O)CCc1ccc(NC(=O)/C=C/c2ccc([N+](=O)[O-])o2)cc1
  A = 10µM*; B = /; C = 11µM*; D = -6%; E = 7.9µM*

SMILES: Cc1ccc(/C=C/C(=O)Nc2ccc([N+](=O)[O-])cc2)o1
  A = -7%; B = 1%; C = -7%; D = 8%; E = 3%

SMILES: N#Cc1nc(COc2ccccc2Cl)oc1NCc1ccc(F)cc1
  A = ?; B = 0%; C = -2%; D = -4%; E = 0%

SMILES: N#Cc1nc(COc2ccccc2Cl)oc1NCc1cccnc1
  A = 21µM*; B = -1%; C = -14%; D = ?; E = 5%

SMILES: CCOC(=O)N1CCN(C(=O)CN2C(=O)/C(=C\c3cccc(OC)c3)SC2=S)CC1
  A = /; B = /; C = /; D = /; E = 0%

SMILES: Cc1cc2nc3c(=O)n(CCc4ccccc4)c(=O)[nH]c3nc2cc1N
  A = ?; B = 0%; C = 6.3µM*; D = ?; E = ?

SMILES: Nc1ccc2nc3c(=O)n(CCc4ccccc4)c(=O)[nH]c3nc2c1
  A = ?; B = 6%; C = ?; D = ?; E = ?

SMILES: Nc1c(C(=O)N/N=C/c2cccnc2)oc2nc(-c3ccccc3)cc(-c3ccco3)c12
  A = ?; B = 7%; C = 10µM*; D = ?; E = -13%

SMILES: CCc1cc2c(-c3ccccc3)cc(=O)oc2cc1OC(=O)c1cccs1
  A = 5.2µM*; B = 2%; C = 3%; D = ?; E = 0%

SMILES: CCOC(=O)C(Sc1cc(-c2ccccc2)nc2ncnn12)C(C)=O (stereo not given)
  A = 12µM*; B = ?; C = ?; D = ?; E = 0%

SMILES: CCOC(=O)C(Cc1ccccc1)NC(=O)CCc1c(C)nc2ncnn2c1C (stereo not given)
  A = 1%; B = -1%; C = -6%; D = ?; E = -3%

SMILES: CCC(=O)N1CCc2cc(Br)cc(S(=O)(=O)CCC(=O)N3CCN(c4ccccc4F)CC3)c21
  A = /; B = 0%; C = 2%; D = /; E = -1%

SMILES: CCCOc1cccc(C(=O)Nc2cccc(NC(=O)c3ccc(Cl)cc3Cl)c2)c1
  A = /; B = 0%; C = -5%; D = /; E = 1%

SMILES: CCCOc1ccc(C(=O)Nc2cccc(NC(=O)c3ccc(Cl)cc3Cl)c2)cc1
  A = /; B = ?; C = ?; D = /; E = 13µM*

SMILES: CCOc1cc(/C=C2/C(=N)N3C(=NC2=O)SN=C3S(=O)(=O)C(C)C)ccc1OC(=O)c1ccco1
  A = ?; B = /; C = ?; D = ?; E = -12%

SMILES: COc1cc(/C=C2/C(=N)N3C(=NC2=O)SN=C3S(=O)(=O)C(C)C)ccc1OC(=O)c1ccco1
  A = 8.2µM*; B = /; C = ?; D = ?; E = -4%

SMILES: COc1cc(/C=C2\C(=N)N3N=CSC3=NC2=O)cc(Br)c1OC(=O)c1ccco1
  A = ?; B = 1%; C = 22µM*; D = ?; E = ?

SMILES: N#CN=c1snc(-c2ccccc2Cl)n1-c1ccc(F)cc1
  A = /; B = /; C = /; D = /; E = -8%

SMILES: Cc1ccc(S(=O)(=O)CCSc2nc(C)cc(C(F)(F)F)c2C#N)cc1
  A = 13%; B = ?; C = ?; D = ?; E = 11µM*

SMILES: COC(=O)CSc1nc(C)cc(C(F)(F)F)c1C#N
  A = ?; B = -2%; C = -5%; D = ?; E = -1%

SMILES: COc1ccc2[nH]cc(C(=O)CN3CCN(C/C=C/c4ccccc4)CC3)c2c1
  A = /; B = 10µM*; C = /; D = /; E = /

SMILES: CCOC(=O)COc1ccc(/C=C(\C#N)c2nc3ccc(C)cc3[nH]2)cc1OC
  A = /; B = 9%; C = 0%; D = /; E = -21%

SMILES: COc1cc(/C=C(\C#N)c2nc3ccc(C)cc3[nH]2)ccc1OCc1ccc(C)cc1
  A = /; B = 5.6µM*; C = ?; D = /; E = -25%

SMILES: COc1ccc(/C=C(\C#N)c2nc3ccccc3[nH]2)cc1O
  A = ?; B = /; C = -24%; D = ?; E = -19%

SMILES: COc1cc(/C=C(\C#N)c2nc3ccccc3[nH]2)ccc1OCc1ccccc1F
  A = /; B = 13%; C = 22µM*; D = /; E = ?

SMILES: CCCCCCC[n+]1ccc(/C=C/c2c(C)[nH]c3ccccc23)c2ccccc21
  A = /; B = /; C = /; D = /; E = 9%

SMILES: O=C1N/C(=C/c2cccn2-c2ccccc2)C(=O)N1Cc1ccc(F)cc1
  A = -28%; B = 7.1µM*; C = -1%; D = ?; E = -1%

SMILES: Cc1cccc(Cn2c(CNS(=O)(=O)c3ccc(C(C)C)cc3)nc3cccnc32)c1
  A = /; B = 0%; C = -1%; D = /; E = -17%

SMILES: O=C(NC(=S)Nc1ccc(N2CCCCC2)c(Cl)c1)c1ccc2c(c1)OCCO2
  A = -3%; B = 0%; C = 10µM*; D = -2%; E = -26%

Record cards, from the list above:
Listed for COc1cc(/C=C2/C(=N)N3C(=NC2=O)SN=C3S(=O)(=O)C(C)C)ccc1OC(=O)c1ccco1 = Rango release inh = 8.2µM*; Epigenetic reg = /; Vif-A3F inh = ?; Rango complex inh = ?; Vif-APOBEC3G blk = -4%
Listed for Cc1cccc(Cn2c(CNS(=O)(=O)c3ccc(C(C)C)cc3)nc3cccnc32)c1 = Rango release inh = /; Epigenetic reg = 0%; Vif-A3F inh = -1%; Rango complex inh = /; Vif-APOBEC3G blk = -17%
